From ChEMBL document CHEMBL4619721, “Design, synthesis & biological evaluation of ferulic acid-based small molecule inhibitors against tumor-associated carbonic anhydrase IX” (Bioorg Med Chem, 2020)

How the values were obtained:
Homo sapiens [1] = species on record: Homo sapiens; experiment: Selectivity index, ratio of IC50 for human carbonic anhydrase 2 using p-nitrophenyl acetate as substrate to IC50 for human carbonic anhydrase 5A using p-nitrophenyl acetate as substrate by
Carbonic anhydrase 9 [2] = target: T1, Carbonic anhydrase 9 (Homo sapiens, UniProt Q16790)
Carbonic anhydrase 9 [3] = target: T1, Carbonic anhydrase 9; remark: listed apart in the source
Homo sapiens [4] = species on record: Homo sapiens; experiment: Selectivity index, ratio of IC50 for human carbonic anhydrase 2 using p-nitrophenyl acetate as substrate to IC50 for human carbonic anhydrase 9 using p-nitrophenyl acetate as substrate

With `COc1cc(/C=C/C(=O)O)ccc1OCc1cn(-c2cccc([N+](=O)[O-])c2)nn1` the Ratio IC50 (Homo sapiens [1]) was 1.8, the Ka (Carbonic anhydrase 9 [2]) was 2.8 ×10⁸ /M and the deltaH (Carbonic anhydrase 9 [3]) was -4.14 ×10⁴ cal/mol. For the same molecule, the Ratio IC50 (Homo sapiens [4]) was 83.
